Measurements from BindingDB's records for doi:10.1023/a:1006986824213 (1999).
Structures can show the parent of a compound that is named as a salt.

Chains of the proteins cited; added tags and fusions are not shown.
UniProt P23977, whole entry: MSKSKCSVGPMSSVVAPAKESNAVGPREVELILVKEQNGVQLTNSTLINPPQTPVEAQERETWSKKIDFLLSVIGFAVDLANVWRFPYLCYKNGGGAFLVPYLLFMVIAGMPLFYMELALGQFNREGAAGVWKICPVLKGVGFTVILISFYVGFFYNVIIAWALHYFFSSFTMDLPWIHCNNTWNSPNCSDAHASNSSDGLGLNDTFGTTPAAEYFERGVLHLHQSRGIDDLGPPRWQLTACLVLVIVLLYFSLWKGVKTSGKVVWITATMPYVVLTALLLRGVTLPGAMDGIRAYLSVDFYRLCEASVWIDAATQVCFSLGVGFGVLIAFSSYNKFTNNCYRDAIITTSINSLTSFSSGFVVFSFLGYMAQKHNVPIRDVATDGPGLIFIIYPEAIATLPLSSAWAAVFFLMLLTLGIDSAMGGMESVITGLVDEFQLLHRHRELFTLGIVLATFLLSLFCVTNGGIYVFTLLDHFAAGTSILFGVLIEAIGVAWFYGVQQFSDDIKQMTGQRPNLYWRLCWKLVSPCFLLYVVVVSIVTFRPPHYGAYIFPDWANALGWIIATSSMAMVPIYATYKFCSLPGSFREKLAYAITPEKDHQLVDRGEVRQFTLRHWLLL
UniProt P14842, whole entry: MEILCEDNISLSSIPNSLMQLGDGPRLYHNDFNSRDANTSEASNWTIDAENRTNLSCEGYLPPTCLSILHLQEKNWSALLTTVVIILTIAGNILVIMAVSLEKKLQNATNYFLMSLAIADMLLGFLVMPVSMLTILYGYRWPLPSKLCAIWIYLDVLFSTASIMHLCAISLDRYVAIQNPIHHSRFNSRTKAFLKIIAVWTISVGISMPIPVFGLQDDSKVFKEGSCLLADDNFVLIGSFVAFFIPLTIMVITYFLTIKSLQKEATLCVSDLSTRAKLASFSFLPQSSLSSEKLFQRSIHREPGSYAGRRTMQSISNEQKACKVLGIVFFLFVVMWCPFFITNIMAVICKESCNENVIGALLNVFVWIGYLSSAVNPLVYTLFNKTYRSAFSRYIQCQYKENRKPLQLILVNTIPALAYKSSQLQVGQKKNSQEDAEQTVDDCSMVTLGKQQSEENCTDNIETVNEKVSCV
UniProt P31652, whole entry: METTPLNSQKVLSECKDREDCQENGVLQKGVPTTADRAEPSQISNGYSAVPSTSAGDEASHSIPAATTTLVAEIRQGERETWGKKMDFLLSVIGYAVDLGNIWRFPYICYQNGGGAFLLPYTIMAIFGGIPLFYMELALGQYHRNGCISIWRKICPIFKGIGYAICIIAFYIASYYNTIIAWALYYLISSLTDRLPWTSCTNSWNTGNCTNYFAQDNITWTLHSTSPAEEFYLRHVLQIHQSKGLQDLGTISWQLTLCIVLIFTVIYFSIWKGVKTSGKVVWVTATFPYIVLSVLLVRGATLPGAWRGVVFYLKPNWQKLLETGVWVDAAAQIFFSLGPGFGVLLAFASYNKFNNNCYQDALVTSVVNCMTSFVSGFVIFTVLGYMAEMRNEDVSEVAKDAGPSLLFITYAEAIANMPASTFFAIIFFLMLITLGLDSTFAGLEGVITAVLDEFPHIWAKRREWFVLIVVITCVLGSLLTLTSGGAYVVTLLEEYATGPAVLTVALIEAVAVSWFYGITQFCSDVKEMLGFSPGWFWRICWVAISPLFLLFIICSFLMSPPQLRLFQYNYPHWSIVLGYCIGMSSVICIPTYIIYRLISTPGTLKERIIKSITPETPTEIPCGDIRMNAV

What was measured:
[1] = target: Sodium-dependent dopamine transporter (Rattus norvegicus, UniProt P23977)
[2] = target: 5-hydroxytryptamine receptor 2A (Rattus norvegicus, UniProt P14842)
[3] = target: Sodium-dependent serotonin transporter (Rattus norvegicus, UniProt P31652)

Ki [2] [µM]	SMILES	Ki [1] [µM]	Ki [3] [µM]
5.6	CN(C)CCCC1(c2ccc(F)cc2)OCc2cc(C#N)ccc21 (centres undefined) [CITALOPRAM HYDROBROMIDE]	> 10	
	Fc1ccc([C@@H]2CCNC[C@H]2COc2ccc3c(c2)OCO3)cc1 [PAROXETINE]	5.1	0.00029
